Source: ChEMBL document CHEMBL1212803, “Resistance-associated mutations to etravirine (TMC-125) in antiretroviral-naïve patients infected with non-B HIV-1 subtypes” (2010)

System: Human immunodeficiency virus 1
Assay: Antiviral activity against HIV-1 subtype CRF02_AG containing reverse transcriptase E138A/K32R, V35E, T39S, S48T, V60I, D121Y, K122E, I135T, S162A, K173A, Q174K, D177E, V179I, T200E, Q207D, R211K mutant relative to control
Assay type: functional

O=C1Nc2ccc(Cl)cc2[C@@](C#CC2CC2)(C(F)(F)F)O1 [EFAVIRENZ]
Ratio IC50: 2.9
